The list is not random: actives were taken first. Their share in the collection is about 1.3%.
ERG-DNA inh = ERG Ets/DNA interaction inhibition; P11308; Potency, µM (doses to about 76.9 µM), inactives show top-dose FP activity, negative = inhibition, actives largely listed as inhibitors; 370,000 compounds, 0.028% hits; fluorescence polarization, His-ERG Ets domain / labelled DNA; active = well fitted inhibition curve with a large enough effect in the polarisation, with a control signal flat; inconclusive = small, poorly fitted or top-dose-only effect, or effect the other way, or a change in a side signal; inactive = no such curve, though single readings can be large or run the other way; the % refers to the polarisation;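 note: polarization taken with two DNA probes labelled with fluorescein and Texas red; potency is the fitted concentration of half-maximal effect; % of control where 0% means no effect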
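His-tagged ERG Ets domain (1 uM in the protein solution; 300mM KCl, 50mM Tris-HCl, 1mM EDTA, 1mM DTT, pH 7.5) received compound, then a probe mix of 5 nM fluorescein-DNA and 100nM Texas-615-DNA. Fluorescence polarization was read for both dyes.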
PINK1 expr mod = PINK1 expression modulation; PINK1 immunofluorescence, high-content cytometry, 24 h; Potency, µM (doses to about 76.6 µM), without a hit: at the top dose activation (PINK1 increase), usual class: activators; 410,000 compounds, 0.2% hits; AID 624263; active = well fitted activation curve with a large enough effect; inconclusive = small, poorly fitted or top-dose-only effect; cell line not stated here; note: potency is the fitted concentration of half-maximal effect; % of control where 0% means no effect; nearly all actives have a fitted effect of over 65% in size
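Decision-based qHTS: stable cells, 24 h exposure to five compound concentrations, CCCP as control. Fixed cells stained for PINK1 plus nuclear, mitochondrial and cell markers, cytometer read.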
PTHR1 agonist = activates the human parathyroid hormone receptor PTHR1. HEK293 GP2 PTHR1 cells, GloSensor cAMP luminescence, 1 h. 410,000 compounds, 0.075% hits. AID 743266. Potency, µM (doses to about 115 µM), inactives show at the top dose activation, hits mostly activators; note: potency is the fitted concentration of half-maximal effect; nearly all actives have a fitted effect of over 55% in size
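HEK-293-derived GP2 cells expressing PTHR1 and a GloSensor cAMP reporter, 3,000/well, plated overnight, given luciferin plus IBMX (each 0.5 mM as added) for 1 h at 37 °C, then compound for 1 h at 37 °C. Luminescence was read after 15 min at room temperature.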
miR-21 FLuc = miR-21 reporter, rising signal. HeLa miR-21 FLuc reporter, luciferase, 48 h. Potency, µM (titrated, usually from 38.3 µM), without a hit: at the top dose reporter change, positive = more light. 340,000 tested, under 10 active. AID 2288; active = well fitted rising curve with a large enough effect; inconclusive = small, poorly fitted or top-dose-only effect; inactive = no such curve, though single readings can be large or run the other way;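 also: % of control where 0% means no effect; miR-21 action dims this reporter so a rising signal means less miR-21 action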
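HeLa miR-21-FLuc reporter line, endogenous miR-21; 2000 cells/well in DMEM/10% FBS; compound titration up to ~40uM final, 48 h, 37 degree Celsius; luciferase detection reagent, 15 min lysis, CCD luminescence.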
Giardia kill = kills Giardia lamblia; Giardia lamblia trophozoite viability; activity change, % at 7.66 µM, hits read low; 340,000 compounds, 0.15% hits; AID 540267; in the data active = activity change below about -80%; inconclusive = between about -30% and that limit;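 note: parasites exposed to compound for two days anaerobically before the ATP read; % is set by controls: 0 for no effect and ±100 for the full control effect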
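Luminescent ATP signal served as the viability read-out, measured 15-30 min after adding ATP detection reagent to trophozoites that had been incubated with compounds for 48 hrs at 37 deg C anaerobically at 100 cells/well.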
12-LOX inh = inhibitors of human 12S-lipoxygenase ALOX12; P18054; purified 12hLO, xylenol orange hydroperoxide absorbance; Potency, µM (titrated, usually from 108 µM), for inactives: at the highest dose activity change, negative = inhibition, actives largely listed as inhibitors; 580,000 compounds, 1.1% hits; note: potency is the fitted concentration of half-maximal effect; % is set by controls: 0 for no effect and ±100 for the full control effect
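Hydroperoxide product was detected by ferrous iron/xylenol orange as the 573 to 405 nm absorbance ratio. Arachidonic acid at 40 uM (final) was turned over for 30 min at room temperature by 150 nM human 12hLO, pH 7.0 Hepes buffer, after 15 min compound preincubation.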
Active calls of the source: *; i = inactive; ? = inconclusive; / = no result given; ! = not confirmed by another sample; [ ] = remark or other dose. Unless noted, calls come from the whole dose curve; as a rule, active = well fitted curve in the direction sought with a large enough effect; inconclusive = small, poorly fitted or top-dose-only effect, or another doubt; inactive = no such curve, though single readings can be large; an effect the other way counts as inactive or inconclusive.

1	CC(=O)Oc1ccc(C(=O)Nc2ccccc2C(=O)Nc2cccc(C(=O)O)c2)cc1
2	COc1ccccc1NC(=O)c1cc(-c2ccco2)nc2ccccc12
3	O=C(Nc1ccc(F)cc1F)c1cc(-c2ccco2)nc2ccccc12
4	O=C(Nc1ccccc1F)c1cc(-c2ccco2)nc2ccccc12
5	Cn1nc(C(=O)N2CCN(c3ccc(F)cc3)CC2)c2c1-c1ccccc1S(=O)(=O)C2
6	O=C(NCc1ccccc1)c1cnc2sc(N3CCCC3)nn2c1=O

Compound	1	2	3	4	5	6
PTHR1 agonist	-15%	/	-11%	i	14%	-18%
12-LOX inh	16%	16µM*	10µM*!	?	-14%	-2%
ERG-DNA inh	6%	/	1%	14%	-1%	3%
miR-21 FLuc	5%	/	6%	/	2%	-1%
PINK1 expr mod	5%	/	4%	11%	1%	0%
Giardia kill	-23	/	13	-14	-19	/

Arranged by the number under ERG-DNA inh (smallest number first): some entries from above.
| nr | mol | PTHR1 agonist | 12-LOX inh | ERG-DNA inh | miR-21 FLuc | PINK1 expr mod |
| --- | --- | --- | --- | --- | --- | --- |
| 6 | O=C(NCc1ccccc1)c1cnc2sc(N3CCCC3)nn2c1=O | -18% | -2% | 3% | -1% | 0% |
| 1 | CC(=O)Oc1ccc(C(=O)Nc2ccccc2C(=O)Nc2cccc(C(=O)O)c2)cc1 | -15% | 16% | 6% | 5% | 5% |
| 4 | O=C(Nc1ccccc1F)c1cc(-c2ccco2)nc2ccccc12 | i | ? | 14% | / | 11% |

More results.
7	COc1ccc(-c2cc(C(=O)NCc3ccco3)c3ccccc3n2)c(OC)c1
8	COc1ccc(-c2cc(C(=O)NCc3ccc(F)cc3)c3ccccc3n2)c(OC)c1
9	Cc1nnc(SCC(=O)NC(=O)NCCC(C)C)s1
10	CC(C)CCNC(=O)NC(=O)CCl
11	Cc1nc2c(o1)C(=O)c1ccccc1C2=Nc1ccccc1
12	CC(=O)c1c(C)oc2c1C(=O)c1ccccc1C2=O

Compound	7	8	9	10	11	12
PTHR1 agonist	-15%	/	i	/	-47%	-9%
12-LOX inh	?	16µM*	15%	28µM*	0%	-9%
ERG-DNA inh	0%	/	-1%	/	/	-5%
miR-21 FLuc	0%	/	0%	/	/	-5%
PINK1 expr mod	0%	/	2%	/	-2%	1%
Giardia kill	-12	/	4	/	-101*	?

13	O=C(O)CCNS(=O)(=O)c1ccc(Br)cc1
14	O=C1Nc2ccccc2/C1=C/c1cnc(-c2ccccc2)[nH]1
15	COCCN1C(=O)/C(=C/c2ccc(N3CCCC3)cc2C)SC1=S
16	CN=C1S/C(=C\c2ccc(N3CCOCC3)cc2C)C(=O)N1C
17	Cc1nc2[nH]c(=S)[nH]c(=O)c2nc1C
18	Cc1nc2c(=O)[nH]c(=S)n(C)c2nc1C

Compound	13	14	15	16	17	18
PTHR1 agonist	/	-20%	i	-27%	i	3%
12-LOX inh	-1%	-19%	-7%	-22%	?	32µM*
ERG-DNA inh	/	4%	116%	8%	-9%	-11%
miR-21 FLuc	/	-55%	3%	-30%	/	-2%
PINK1 expr mod	/	45µM*	22µM*	9%	1%	3%
Giardia kill	/	1	12	-13	19	-5

19	O=C1C2C3C=CC(C4CC34)C2C(=O)N1c1ccc2c(c1)OCO2 (stereo not given)
20	O=C(O)c1cccc(-n2cccc2/C=C2\NC(=O)N(Cc3ccc(F)cc3)C2=O)c1
21	Cc1cccc(NC(=O)CCc2ccccc2)c1
22	Cc1cccc(NC(=S)NC(C)CCc2ccccc2)c1 (stereo not given)
23	COc1cccc(NC(=S)NC(C)c2ccc(OC)c(OC)c2)c1 (stereo not given)
24	Cc1cccc(NC(=O)C(C#N)C(=O)CCc2ccccc2)c1 (stereo not given)

Compound	19	20	21	22	23	24
PTHR1 agonist	i	-12%	-27%	i	-9%	/
12-LOX inh	8%	40µM*	-3%	40µM*	-16%	32µM*
ERG-DNA inh	3%	-6%	6%	2%	0%	/
miR-21 FLuc	-5%	-9%	-31%	1%	-1%	/
PINK1 expr mod	-2%	3%	-1%	?	2%	/
Giardia kill	3	9	2	17	-4	/

25	COc1cccc(NC(=S)NC(Cc2ccccc2)c2ccccc2)c1 (stereo not given)
26	O=C(Nc1ccc2[nH]c(=O)[nH]c2c1)c1ccc(Cl)c(Cl)c1
27	Cc1cccc(NC(=O)CCN2C(=O)C3C4C=CC(C4)C3C2=O)n1 (stereo not given)
28	CN(CC(=O)O)S(=O)(=O)c1ccc2c(c1)n(C)c(=O)c(=O)n2C
29	CCN(CC)CCCNC(=O)C(=O)Nc1ccc2nc3n(c(=O)c2c1)CCCCC3
30	COc1cc(/C=C2\CCCc3c2nc2ccccc2c3C(=O)O)cc(Br)c1O

Compound	25	26	27	28	29	30
PTHR1 agonist	-2%	i	i	-45%	i	-24%
12-LOX inh	40µM*	?	-19%	-9%	-22%	50µM*
ERG-DNA inh	/	6%	-10%	1%	-1%	3%
miR-21 FLuc	/	-3%	-4%	-2%	-11%	-10%
PINK1 expr mod	?	0%	-1%	1%	-1%	2%
Giardia kill	/	1	-9	-2	/	-1

31	c1ccc(CCNc2ncnc3c2nnn3Cc2ccccc2)cc1
32	COc1ccc(CCNc2ncnc3c2cnn3-c2cccc(Cl)c2)cc1
33	c1ccc(Cn2nnc3c(NCCN4CCOCC4)ncnc32)cc1
34	COc1ccc(-n2ncc3c(NCc4ccco4)ncnc32)cc1
35	Cc1ccc(-n2ncc3c(NCCc4ccccc4)ncnc32)cc1
36	Cn1c(=O)c2c(nc(SCC(=O)NCc3ccc4c(c3)OCO4)n2Cc2ccc(Cl)cc2)n(C)c1=O

Compound	31	32	33	34	35	36
PTHR1 agonist	i	i	i	-9%[57.5 µM]	-22%	i
12-LOX inh	9%	40µM*	-4%	32µM*	28µM*	4%
ERG-DNA inh	0%	13%	-1%	-11%	0%	2%
miR-21 FLuc	-7%	-3%	-6%	-49%	-33%	-3%
PINK1 expr mod	11µM*	5%	2%[38.3 µM]	8%[38.3 µM]	3%	5%
Giardia kill	-5	/	-1	-20	/	8

Results in ERG-DNA inh, miR-21 FLuc and PTHR1 agonist (4 entries from above):
no. | SMILES | ERG-DNA inh | miR-21 FLuc | PTHR1 agonist
32 | COc1ccc(CCNc2ncnc3c2cnn3-c2cccc(Cl)c2)cc1 | 13% | -3% | i
33 | c1ccc(Cn2nnc3c(NCCN4CCOCC4)ncnc32)cc1 | -1% | -6% | i
34 | COc1ccc(-n2ncc3c(NCc4ccco4)ncnc32)cc1 | -11% | -49% | -9%[57.5 µM]
35 | Cc1ccc(-n2ncc3c(NCCc4ccccc4)ncnc32)cc1 | 0% | -33% | -22%

Additional structures.
37	COCCNC(=O)C[C@@H]1O[C@H](CNS(=O)(=O)c2ccc(C)cc2)[C@@H](O)[C@H]1O
38	Cc1cc(N2C(=O)C(O)=C(C(=O)c3cc4ccccc4o3)C2c2ccc(Br)cc2)no1 (stereo not given)
39	Cc1cc(N2C(=O)C(O)=C(C(=O)c3cc4ccccc4o3)C2c2ccc(Cl)cc2)no1 (stereo not given)
40	Cc1cc(N2C(=O)C(O)=C(C(=O)c3cc4ccccc4o3)C2c2cccc(Cl)c2)no1 (stereo not given)
41	CN(C)CCN1C(=O)C(O)=C(C(=O)c2cc3ccccc3o2)C1c1ccc(N(C)C)cc1 (stereo not given)
42	CCCOc1ccc(C2C(C(=O)c3cc4ccccc4o3)=C(O)C(=O)N2c2cc(C)on2)cc1 (stereo not given)

Compound	37	38	39	40	41	42
PTHR1 agonist	/	-31%	-20%	-19%	i	-17%
12-LOX inh	6%[176 µM]	40µM*	40µM*	?	6%	?
ERG-DNA inh	/	-1%	8%	-3%	34%	3%
miR-21 FLuc	/	-24%	-5%	-10%	-17%	-9%
PINK1 expr mod	/	1%	-1%	25%	1%	25µM*
Giardia kill	/	14	6	-20	-10	14

43	CN(C)CCN1C(=O)C(O)=C(C(=O)c2cc3ccccc3o2)C1c1ccc(OCc2ccccc2)cc1 (stereo not given)
44	O=C(OCc1nc(-c2cccc(Cl)c2)no1)c1ccc(Cl)s1
45	CCOc1ccc(-c2c(C(=O)N/N=C/c3ccsc3)nnn2-c2nonc2N)cc1
46	Cc1ccc(-c2csc3nc[nH]c(=S)c23)cc1C

Compound	43	44	45	46
PTHR1 agonist	/	/	-5%	-32%
12-LOX inh	25µM*	-22%	0%	28µM*
ERG-DNA inh	/	/	-5%	0%
miR-21 FLuc	/	/	-2%	1%
PINK1 expr mod	/	/	2%	2%
Giardia kill	/	/	9	-5

Source: PubChem
